The test addresses Cyclin-dependent kinase 7 (Homo sapiens, UniProt P50613). In words: Inhibition of CDK7 (unknown origin) assessed as ratio of Kinact to Ki.

By UniProt entry, the sequences of proteins in these tests, tags left out. Where a name states a change or a piece, a line headed by the entry shows the natural chain unless it says otherwise.
UniProt P50613: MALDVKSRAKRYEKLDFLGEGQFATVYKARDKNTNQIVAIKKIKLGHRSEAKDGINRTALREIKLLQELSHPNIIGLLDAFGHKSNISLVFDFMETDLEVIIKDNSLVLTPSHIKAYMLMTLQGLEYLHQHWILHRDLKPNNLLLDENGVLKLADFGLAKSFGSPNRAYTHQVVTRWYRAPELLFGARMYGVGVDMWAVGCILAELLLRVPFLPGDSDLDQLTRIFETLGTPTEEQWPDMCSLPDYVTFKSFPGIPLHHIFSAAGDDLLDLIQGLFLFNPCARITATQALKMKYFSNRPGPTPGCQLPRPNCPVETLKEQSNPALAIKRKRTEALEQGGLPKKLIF

Take `CN(C)C/C=C/C(=O)Nc1ccc(C(=O)N[C@@]2(C)CCC[C@@H](Nc3ncc(Cl)c(-c4c[nH]c5ccccc45)n3)C2)nc1`: the Ratio was found to be 0.131 µM⁻¹ s⁻¹.

The values are drawn from ChEMBL document CHEMBL4610077, “CDK7 Inhibitors in Cancer Therapy: The Sweet Smell of Success?” (J Med Chem, 2020).
